The text below walks through data of PMC10892935 (Viruses, 2024).

The target in the assay is FHV-1 gB (Feline herpesvirus 1, UniProt Q86665). Description: biochemical. The format is binding, feline herpesvirus-1 (FHV-1).

Consider `CC1OC(OC2CCC3(C)C(CCC4(C)C3C=CC3=C5CC(C)(C)CCC5(CO)C(O)CC34C)C2(C)CO)C(O)C(OC2OC(CO)C(O)C(O)C2O)C1O` (centres unmarked) [Saikosaponin B2], for which the koff (read-out: Kdis (rate of dissociation)) stood at 0.922 s⁻¹. The association rate constant (kon) (read-out: Kon (rate of association)) worked out at 3150 M⁻¹ s⁻¹.
